Source: patent US7605168B2 (Plexxikon, Inc., priority 2004, dated 2009)

The chains behind the UniProt entries cited, without tags or fusion partners. A line that says so, or that is headed by a name, gives the form on record, which may keep a tag or linker. Residues count along the entry.
UniProt Q07343, 324-700 limits assumed: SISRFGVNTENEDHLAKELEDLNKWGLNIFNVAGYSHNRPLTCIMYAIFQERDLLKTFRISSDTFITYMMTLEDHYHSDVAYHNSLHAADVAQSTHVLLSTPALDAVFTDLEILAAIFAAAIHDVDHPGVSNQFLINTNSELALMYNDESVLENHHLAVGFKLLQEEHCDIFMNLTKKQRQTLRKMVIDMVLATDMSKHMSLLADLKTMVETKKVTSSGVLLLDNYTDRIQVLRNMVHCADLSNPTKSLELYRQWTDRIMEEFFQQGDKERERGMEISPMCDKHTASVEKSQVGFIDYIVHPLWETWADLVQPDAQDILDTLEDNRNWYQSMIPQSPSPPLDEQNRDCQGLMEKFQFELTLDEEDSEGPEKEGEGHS
UniProt Q07343, 1-564 with tags or gaps isoform 2: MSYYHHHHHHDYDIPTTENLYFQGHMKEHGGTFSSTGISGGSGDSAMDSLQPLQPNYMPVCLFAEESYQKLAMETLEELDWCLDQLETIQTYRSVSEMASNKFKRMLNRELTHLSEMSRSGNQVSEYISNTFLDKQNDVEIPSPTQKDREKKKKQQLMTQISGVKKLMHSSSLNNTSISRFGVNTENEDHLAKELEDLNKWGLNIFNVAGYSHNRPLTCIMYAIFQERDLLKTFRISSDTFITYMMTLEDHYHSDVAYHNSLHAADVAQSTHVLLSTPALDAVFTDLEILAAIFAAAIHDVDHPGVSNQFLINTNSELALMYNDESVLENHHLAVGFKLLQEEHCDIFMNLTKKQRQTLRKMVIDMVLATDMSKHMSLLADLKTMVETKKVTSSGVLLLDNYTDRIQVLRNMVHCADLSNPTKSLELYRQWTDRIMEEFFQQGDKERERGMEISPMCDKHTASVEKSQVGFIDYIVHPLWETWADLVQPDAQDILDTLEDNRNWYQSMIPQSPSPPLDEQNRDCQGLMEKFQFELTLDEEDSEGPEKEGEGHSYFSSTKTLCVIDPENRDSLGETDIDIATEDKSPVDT
UniProt Q08499, 1-745 with tags or gaps isoform 6: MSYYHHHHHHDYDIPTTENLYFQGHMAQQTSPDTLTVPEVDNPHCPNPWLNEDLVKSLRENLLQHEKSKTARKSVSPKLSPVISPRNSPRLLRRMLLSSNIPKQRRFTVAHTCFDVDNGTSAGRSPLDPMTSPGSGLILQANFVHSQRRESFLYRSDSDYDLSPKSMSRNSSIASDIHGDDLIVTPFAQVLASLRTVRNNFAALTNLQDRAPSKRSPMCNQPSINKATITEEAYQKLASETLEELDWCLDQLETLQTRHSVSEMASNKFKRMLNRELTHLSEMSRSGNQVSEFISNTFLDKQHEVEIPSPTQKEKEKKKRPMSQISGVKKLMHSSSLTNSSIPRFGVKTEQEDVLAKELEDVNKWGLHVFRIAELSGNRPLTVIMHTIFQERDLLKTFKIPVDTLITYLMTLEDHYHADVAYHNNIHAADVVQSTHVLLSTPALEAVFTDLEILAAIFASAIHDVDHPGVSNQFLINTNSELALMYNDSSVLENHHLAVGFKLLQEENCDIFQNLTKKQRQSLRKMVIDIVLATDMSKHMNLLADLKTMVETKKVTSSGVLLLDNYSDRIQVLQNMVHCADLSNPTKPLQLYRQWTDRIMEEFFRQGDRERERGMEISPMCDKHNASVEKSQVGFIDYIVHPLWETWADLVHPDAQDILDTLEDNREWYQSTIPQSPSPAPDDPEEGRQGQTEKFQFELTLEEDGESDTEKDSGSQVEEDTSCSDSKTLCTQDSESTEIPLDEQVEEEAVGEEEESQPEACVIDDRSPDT

What was measured:
[1] = target: PDE4B: catalytic domain of human PDE4B from S152-S528 (Homo sapiens, UniProt Q07343); assay: PDE4 IC50 determination by Scintillation Proximity Assay (SPA), PDE4B catalytic domain; settings: read-out: PDE4B IC50, [3H]cAMP SPA, 30 min at 30° C.
[2] = target: PDE4B2: full-length human PDE4B2 isozyme (Homo sapiens, UniProt Q07343); assay: PDE4 IC50 determination by Scintillation Proximity Assay (SPA), full-length PDE4B2; settings: read-out: PDE4B2 IC50, cell lysate, [3H]cAMP SPA
[3] = target: PDE4D5: full-length human PDE4D5 isozyme (Homo sapiens, UniProt Q08499); assay: PDE4 IC50 determination by Scintillation Proximity Assay (SPA), full-length PDE4D5; settings: read-out: PDE4D5 IC50, cell lysate, [3H]cAMP SPA

Measured: IC50

COc1ccc(-c2cn(S(=O)(=O)c3cccc4cc(C)cnc34)c3ccccc23)cc1OC
< 10 µM: all assays above
